Test results from US7674594B2, “Screening assay for inhibitors of TRPA1 activation by a lower alkyl phenol” (Redpoint Bio Corporation, priority 2006, dated 2010).

Protein sequences, listed by entry. Tags and fused reporters are not part of them. Lines headed by an entry give the natural chain unless they say otherwise; changes in a name come on top.
UniProt O75762, whole entry: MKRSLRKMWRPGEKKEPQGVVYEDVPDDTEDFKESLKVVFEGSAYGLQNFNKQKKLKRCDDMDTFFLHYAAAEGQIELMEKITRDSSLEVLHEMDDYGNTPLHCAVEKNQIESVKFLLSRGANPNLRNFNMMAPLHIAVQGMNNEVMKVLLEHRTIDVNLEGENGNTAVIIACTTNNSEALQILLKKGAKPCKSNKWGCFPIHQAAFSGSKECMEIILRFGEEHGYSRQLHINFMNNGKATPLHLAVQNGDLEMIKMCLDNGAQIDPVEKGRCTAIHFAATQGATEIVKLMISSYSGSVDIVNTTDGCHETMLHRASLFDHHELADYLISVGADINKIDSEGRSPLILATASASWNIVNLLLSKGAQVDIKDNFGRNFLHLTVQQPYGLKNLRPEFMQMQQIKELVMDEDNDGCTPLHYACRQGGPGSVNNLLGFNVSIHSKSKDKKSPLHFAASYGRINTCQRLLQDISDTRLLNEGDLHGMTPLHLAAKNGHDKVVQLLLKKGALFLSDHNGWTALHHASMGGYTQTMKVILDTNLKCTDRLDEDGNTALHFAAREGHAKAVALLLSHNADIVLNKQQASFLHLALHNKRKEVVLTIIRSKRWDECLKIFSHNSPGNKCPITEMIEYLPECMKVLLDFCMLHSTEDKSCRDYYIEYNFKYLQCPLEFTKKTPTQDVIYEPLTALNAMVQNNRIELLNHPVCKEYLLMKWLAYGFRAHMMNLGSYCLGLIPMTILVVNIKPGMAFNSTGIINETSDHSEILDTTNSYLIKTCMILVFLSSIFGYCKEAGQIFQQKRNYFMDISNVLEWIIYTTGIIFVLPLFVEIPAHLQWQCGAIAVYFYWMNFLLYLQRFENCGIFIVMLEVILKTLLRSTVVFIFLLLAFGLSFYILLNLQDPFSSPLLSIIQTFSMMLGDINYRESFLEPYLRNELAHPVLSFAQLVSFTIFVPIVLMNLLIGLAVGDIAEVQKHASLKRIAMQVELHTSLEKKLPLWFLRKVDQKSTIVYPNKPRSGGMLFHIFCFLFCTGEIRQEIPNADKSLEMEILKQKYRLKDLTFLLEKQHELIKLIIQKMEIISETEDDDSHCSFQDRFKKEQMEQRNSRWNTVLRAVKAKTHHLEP
UniProt Q8NER1, whole entry: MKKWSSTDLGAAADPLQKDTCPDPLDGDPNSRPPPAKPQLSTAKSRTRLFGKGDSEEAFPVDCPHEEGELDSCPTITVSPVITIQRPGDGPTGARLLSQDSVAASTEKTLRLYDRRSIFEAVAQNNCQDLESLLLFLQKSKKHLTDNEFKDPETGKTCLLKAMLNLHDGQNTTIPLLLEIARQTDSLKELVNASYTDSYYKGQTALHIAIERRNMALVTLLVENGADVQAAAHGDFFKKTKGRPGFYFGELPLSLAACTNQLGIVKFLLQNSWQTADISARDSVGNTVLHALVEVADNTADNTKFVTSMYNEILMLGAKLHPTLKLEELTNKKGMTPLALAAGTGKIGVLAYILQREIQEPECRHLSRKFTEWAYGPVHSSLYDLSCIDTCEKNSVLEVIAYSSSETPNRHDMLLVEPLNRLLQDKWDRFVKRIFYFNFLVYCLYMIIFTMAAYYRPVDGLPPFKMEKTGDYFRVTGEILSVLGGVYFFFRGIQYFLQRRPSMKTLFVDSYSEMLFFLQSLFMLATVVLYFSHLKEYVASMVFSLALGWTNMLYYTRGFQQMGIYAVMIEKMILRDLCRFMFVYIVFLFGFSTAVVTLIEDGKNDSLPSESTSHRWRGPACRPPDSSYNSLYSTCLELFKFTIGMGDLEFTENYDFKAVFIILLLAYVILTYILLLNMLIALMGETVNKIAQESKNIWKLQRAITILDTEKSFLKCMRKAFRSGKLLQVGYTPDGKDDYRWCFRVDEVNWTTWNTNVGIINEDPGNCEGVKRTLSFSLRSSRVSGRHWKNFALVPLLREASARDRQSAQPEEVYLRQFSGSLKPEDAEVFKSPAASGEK
UniProt Q8TD43: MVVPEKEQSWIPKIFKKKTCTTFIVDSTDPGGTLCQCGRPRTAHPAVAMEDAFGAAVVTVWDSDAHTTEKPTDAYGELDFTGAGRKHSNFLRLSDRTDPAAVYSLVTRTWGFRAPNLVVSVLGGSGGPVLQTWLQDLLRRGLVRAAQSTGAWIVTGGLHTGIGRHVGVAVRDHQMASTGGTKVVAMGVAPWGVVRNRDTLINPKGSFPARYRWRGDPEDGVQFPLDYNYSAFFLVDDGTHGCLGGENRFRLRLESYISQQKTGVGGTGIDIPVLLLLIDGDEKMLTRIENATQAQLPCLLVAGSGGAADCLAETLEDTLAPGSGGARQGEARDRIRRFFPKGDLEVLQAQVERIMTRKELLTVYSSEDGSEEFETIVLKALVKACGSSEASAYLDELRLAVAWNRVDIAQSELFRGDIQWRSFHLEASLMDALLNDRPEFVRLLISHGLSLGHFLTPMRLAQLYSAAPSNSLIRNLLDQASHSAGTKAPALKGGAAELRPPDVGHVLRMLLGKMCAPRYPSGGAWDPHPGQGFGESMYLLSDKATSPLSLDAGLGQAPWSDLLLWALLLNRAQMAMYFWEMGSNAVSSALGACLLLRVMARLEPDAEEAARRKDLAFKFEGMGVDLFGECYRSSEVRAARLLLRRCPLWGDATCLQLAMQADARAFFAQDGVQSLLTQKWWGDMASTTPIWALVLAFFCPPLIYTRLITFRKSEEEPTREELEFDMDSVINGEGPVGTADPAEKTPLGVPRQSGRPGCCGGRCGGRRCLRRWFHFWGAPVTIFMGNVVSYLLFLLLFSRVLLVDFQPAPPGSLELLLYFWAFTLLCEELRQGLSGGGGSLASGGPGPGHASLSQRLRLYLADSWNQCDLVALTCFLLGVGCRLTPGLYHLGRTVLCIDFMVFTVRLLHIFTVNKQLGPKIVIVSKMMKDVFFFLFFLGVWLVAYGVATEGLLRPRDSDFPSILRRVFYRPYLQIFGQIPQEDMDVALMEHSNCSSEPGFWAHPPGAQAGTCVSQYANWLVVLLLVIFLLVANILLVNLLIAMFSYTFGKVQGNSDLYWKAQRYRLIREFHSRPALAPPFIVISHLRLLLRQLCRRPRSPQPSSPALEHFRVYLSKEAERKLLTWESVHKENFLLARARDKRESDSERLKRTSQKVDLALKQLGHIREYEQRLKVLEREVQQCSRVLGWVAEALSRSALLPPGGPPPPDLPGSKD

Experiments:
Assay type in all cases: cell-based
hTRPA1 [1] = target: T1, hTRPA1 (Homo sapiens, UniProt O75762); test: Membrane potential dye fluorescence assay (FLIPR/FLEXstation), activation of hTRPA1 in transfected HEK293 cells
T1 construct: The full length hTRPA1 was amplified by PCR with Kpn1 and Xho1 restriction enzyme sites; expressed in transfected cells; also transient transfection
Method: Once expression of TRPA1 was confirmed, 100 μl of the Blue or Red FMP dye (Molecular Devices) was added to each well of plates seeded with the transiently transfected cells. The plate was then incubated in a 37° C./5% CO2 incubator for 1 hour. The plate was read in a FLEXStation microplate reader (Molecular Devices) with an excitation of 530 nm and an emission of 565 nm. The fluorescence was monitored for 3 minutes upon exposure of the cells to a TRPA1 activating agent (e.g., cinnamaldehyde).
(§1) Samples in a 384-well plate were evaluated in a 5 minute assay on the FLIPR-Tetra™ (Molecular Devices). The assay was performed on a FLIPR™ using the excitation 510-545 nm and emission 565-625 nm filter sets. TRPA1-Transfected HEK cells, 15,000/well, were seeded overnight on poly-D-lysine coated 384 well plates in 20 μl media. Membrane Potential Assay Dye Red (Molecular Devices), 20 μl/well, was added and the plates incubated for 1 hour in a 37° C. and 5% CO2 incubator. The plates were then removed from the incubator and equilibrated to room temperature for 15 minutes before reading on the FLIPR®. The plates were read on the FLIPR® for a total of 3 minutes. Baseline fluorescence was obtained on the FLIPR® for 10 seconds followed by addition (typically 10 μl) of each agonist by the FLIPR® and read for an additional 2 minutes and 50 seconds.

hTRPV1 = target: T2, hTRPV1 (Homo sapiens, UniProt Q8NER1); test: Membrane potential dye fluorescence assay, HEK293 cells expressing hTRPV1
T2 construct: expressed in transfected cells
Method: as §1
(§2) HEK293 cells were stably transfected with one of hTRPA1, hTRPV1 or hTRPM5. CHO cells were stably transfected with one of hTRPM4B or TRPM5. Parental HEK293 and CHO cells were also used as a negative control.

hTRPM4B = target: T3, hTRPM4B (Homo sapiens, UniProt Q8TD43); test: Membrane potential dye fluorescence assay, CHO cells expressing hTRPM4B
T3 construct: expressed in transfected cells
Method: as §1, §2

hTRPM5 = target: T4, hTRPM5 (Homo sapiens, UniProt Q9NZQ8); test: Membrane potential dye fluorescence assay, HEK293 or CHO cells expressing hTRPM5
T4 construct: expressed in transfected cells
T4 sequence (Q9NZQ8 1-1165): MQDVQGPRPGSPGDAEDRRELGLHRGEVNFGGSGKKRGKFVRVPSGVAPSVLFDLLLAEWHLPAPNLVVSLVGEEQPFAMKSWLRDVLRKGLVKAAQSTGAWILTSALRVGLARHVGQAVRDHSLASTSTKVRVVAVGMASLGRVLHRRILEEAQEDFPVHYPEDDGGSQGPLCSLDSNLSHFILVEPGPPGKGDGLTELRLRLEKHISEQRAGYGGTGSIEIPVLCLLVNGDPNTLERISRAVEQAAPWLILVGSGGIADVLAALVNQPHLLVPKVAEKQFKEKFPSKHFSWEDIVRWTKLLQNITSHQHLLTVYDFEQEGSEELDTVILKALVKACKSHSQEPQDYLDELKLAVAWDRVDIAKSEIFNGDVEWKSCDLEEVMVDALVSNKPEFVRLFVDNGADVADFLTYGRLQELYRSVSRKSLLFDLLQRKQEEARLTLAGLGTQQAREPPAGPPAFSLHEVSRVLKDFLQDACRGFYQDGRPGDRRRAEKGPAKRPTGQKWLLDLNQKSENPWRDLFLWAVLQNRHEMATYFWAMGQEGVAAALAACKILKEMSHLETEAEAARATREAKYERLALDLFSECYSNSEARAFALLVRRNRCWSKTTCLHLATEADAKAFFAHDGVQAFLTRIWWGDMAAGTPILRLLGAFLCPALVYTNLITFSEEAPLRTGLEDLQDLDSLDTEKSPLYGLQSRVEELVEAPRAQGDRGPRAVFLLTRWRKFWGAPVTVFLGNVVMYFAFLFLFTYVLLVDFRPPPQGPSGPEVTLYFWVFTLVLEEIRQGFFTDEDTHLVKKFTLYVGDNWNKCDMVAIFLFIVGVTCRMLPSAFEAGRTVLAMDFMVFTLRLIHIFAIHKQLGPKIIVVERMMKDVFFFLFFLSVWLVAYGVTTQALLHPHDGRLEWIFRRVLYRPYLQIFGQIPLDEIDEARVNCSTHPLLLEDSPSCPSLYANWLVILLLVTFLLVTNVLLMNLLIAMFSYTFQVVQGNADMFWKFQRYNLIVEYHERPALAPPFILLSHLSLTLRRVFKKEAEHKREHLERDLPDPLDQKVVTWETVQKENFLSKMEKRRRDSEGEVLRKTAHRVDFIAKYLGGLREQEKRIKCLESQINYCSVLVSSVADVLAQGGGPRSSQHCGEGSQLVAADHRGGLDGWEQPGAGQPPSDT
Method: as §1, §2

hTRPA1 [2] = target: T1, hTRPA1; test: Modulation of agonist-activated TRPA1 in HEK293 cells expressing hTRPA1 (membrane potential dye); details: pretreated with camphor
Method: as §1
(§3) Appropriate control experiments are performed and can easily be determined by the skilled artisan.
(§4) HEK293 cells and CHO cells expressing TRPA1 were subjected to the assay described in Example 2.

hTRPA1 [3] = target: T1, hTRPA1; test: Modulation of agonist-activated TRPA1 in CHO cells expressing hTRPA1 (membrane potential dye); details: pretreated with camphor
Method: as §1, §3, §4

In the case of `Cc1ccc(O)cc1C` [3,4-dimethylphenol], the EC50 (hTRPA1 [1]) is reported as 123 ± 27 µM, the “TRPA1 activation / agonist activity (in words)” value (hTRPA1 [1]) is reported as “generated an increase in relative fluorescence” and the “response of cells expressing hTRPV1 (in words)” value (hTRPV1) is reported as “did not generate the same increase in relative fluorescence”. For the same compound, the “response of cells expressing hTRPM4B (in words)” value (hTRPM4B) was “did not generate the same increase in relative fluorescence” and the “response of cells expressing hTRPM5 (in words)” value (hTRPM5) was “did not generate the same increase in relative fluorescence”.
With `CC12CCC(CC1=O)C2(C)C` (stereo not shown) [Camphor] the IC50 (hTRPA1 [2]) was 300 µM and the IC50 (hTRPA1 [3]) was 150 µM.
